The values that follow are results of earlier work, collected in PMC10994248, “First-In-Human Phase I Study of Tinengotinib (TT-00420), a Multiple Kinase Inhibitor, as a Single Agent in Patients With Advanced Solid Tumors” (The Oncologist, 2024).

Structures are written as SMILES.

The subject of the data set is FGFR2 fusion or rearranged cholangiocarcinoma. The settings on record: after failure of first-line chemotherapy ref 20-22; cited from earlier work.

As to `C=CC(=O)N1CC[C@H](n2nc(C#Cc3cc(OC)cc(OC)c3)c3c(N)ncnc32)C1` [futibatinib], the Objective response rate was 42%.
